## Ab-14 light chain CDR variants: yeast mating affinities

From the AlphaSeq antibody data of Engelhart et al. 2022 (doi:10.1038/s41597-022-01779-4), copy in the FLAb collection.

The target is the same throughout: PDVDLGDISGINAS, from the HR2 region of SARS-CoV-2 spike.

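Variants in AAYL50 differ from the parent at up to three CDR positions; double and triple changes were sampled at random. The scFvs were displayed on barcoded MATa yeast, the peptide on MATalpha yeast. After mating in shaken culture at 30 °C for 16 h, diploids were selected and their barcode pairs sequenced. Each replicate has its own calibration line, from reference interactions of the BCL2 family. The assay was run in three technical replicates.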

Parent scFv Ab-14: VH joined to VL by the linker GGGGSGGGGSGGGGS. Changes lie in the light chain CDRs alone.
VH: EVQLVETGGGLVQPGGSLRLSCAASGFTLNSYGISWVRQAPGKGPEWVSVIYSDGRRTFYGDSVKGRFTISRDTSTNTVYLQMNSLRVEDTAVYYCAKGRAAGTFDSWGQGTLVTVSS
VL: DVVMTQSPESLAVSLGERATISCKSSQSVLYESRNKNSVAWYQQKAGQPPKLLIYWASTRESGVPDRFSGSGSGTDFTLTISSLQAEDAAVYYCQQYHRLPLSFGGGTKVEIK

Each variant is given by its three light chain CDRs, as the data file delimits them; those of the parent are KSSQSVLYESRNKNSVA, WASTRES, QQYHRLPLS. Affinities are written as log10 Kd with Kd in nM; a lower number is a better binder. Replicates are averaged; those with no signal do not enter the mean. "nd" means that the variant was in the library but no mating with the target was seen in that replicate; the authors take this as a sign of poor binding, and no number exists. Background: pairings of library AAYL50 with three empty control strains gave a value in 18% of cases (median 4.19, 5th percentile 2.99). Values in that range, when seen in few replicates, are hard to tell from nonspecific mating. Also given: how often the same scFv was detected with the empty control strains, with their mean in brackets. In this assay the parent's reference entry averaged 0.65; its copy inside this library read 1.68.

| CDR-L1 | CDR-L2 | CDR-L3 | log10 Kd, replicates | mean log10 Kd (nM) | signal with controls |
|---|---|---|---|---|---|
| KSLQSVLYESRNKNSVA | WWSTRES | QQYHRLPLS | nd 2.95 5.48 | 4.21 | 4 of 9 (4.35) |
| KSPQSVLYESRNKNEVA | WASTRCS | QQYHRLPLS | nd nd nd | nd | 0 of 9 |
| KSSQSVLYESRNKNSVA | WPSGRES | QIYHRLPLS | nd nd nd | nd | 2 of 9 (4.10) |
| KSSQSVFYERRNKNSVA | WASTRES | QKYHRLPLS | 4.87 nd nd | 4.87 | 1 of 9 (4.11) |
| KSSKSVLYESRNKMIVA | WASTRES | QQYHRLPLS | 4.41 nd nd | 4.41 | 2 of 9 (4.63) |
| KSSQSPLYESRNCESVA | WASTRES | QQYHRLPLS | nd nd nd | nd | 0 of 9 |
| KSSQSVLYESRNKNSVA | WASTKES | QQYHRLPLS | 1.24 1.40 1.26 | 1.30 | 5 of 9 (4.59) |
| KSSQSVLYESRNFNSVA | WASTREQ | QQYTRLPLS | nd 2.51 nd | 2.51 | 1 of 9 (3.14) |
| KSSQSVLYESRNKNSVA | WASTRES | TQYHFLPLS | nd nd nd | nd | 0 of 9 |
| KTSQSVLYESRNKNCVA | NASTRES | QQYHRLPLS | 0.35 0.80 0.55 | 0.57 | 4 of 9 (5.48) |
| PKSQSVLYESRNKNSVA | WASTRCS | QQYHRLPLS | nd nd nd | nd | 0 of 9 |
| KSSQVVLYEVRNKNSVA | WQSTRES | QQYHRLPLS | 6.70 nd nd | 6.70 | 5 of 9 (4.74) |
| KSSQSVLHEFRNKNSVA | WASTRES | QQYHYLPLS | 1.62 1.69 2.64 | 1.98 | 1 of 9 (4.46) |
| KSSQSLLYESRNKESVA | VASTRES | QQYHRLPLS | nd nd nd | nd | 0 of 9 |
| KSCQSVLYESRNKNSVA | WESTRES | QQYHRLPLC | nd nd nd | nd | 0 of 9 |
| KSSQWVLTESRNKNSVA | WASTRKS | QQYHRLPLS | nd 3.08 3.38 | 3.23 | 1 of 9 (3.83) |
| KSMQSVLYESRNKNSVA | WISTRES | QQMHRLPLS | nd nd nd | nd | 1 of 9 (3.87) |
| KSSQSVLYMSRNKNVVA | WASTREK | QQYHRLPLS | nd nd nd | nd | 0 of 9 |
| TSSQSVLYEYRNKNSVA | WASTRES | QQYERLPLS | 1.84 1.92 1.18 | 1.64 | 0 of 9 |
| KSSQSVLYESRNKNSHA | NASTRES | QDYHRLPLS | 0.24 0.55 0.43 | 0.41 | 0 of 9 |
| KSIQSVLKESRNKWSVA | WASTRES | QQYHRLPLS | 2.32 1.98 2.36 | 2.22 | 0 of 9 |
| KLSQSVLYESRNKNSVA | WASTLES | QQYHELPLS | 0.60 0.63 0.52 | 0.58 | 0 of 9 |
| KSSQSVLYESYNKNSVA | RASTRES | QQYHRLILS | nd nd 3.84 | 3.84 | 1 of 9 (3.92) |
| KSSVSVLYESRNKNQVA | WASTRNS | QQYHRLPLS | 2.87 3.18 3.16 | 3.07 | 1 of 9 (5.37) |
| KSSQSVRYESRNKNSVA | WASTRES | LQYHRLPLW | nd nd nd | nd | 0 of 9 |
| KSSQSVLYESKNDNSVA | WASTRES | QQYHRLYLS | nd nd nd | nd | 0 of 9 |
| KSKQSNLYESRNKNSVA | WAPTRES | QQYHRLPLS | 3.42 nd nd | 3.42 | 2 of 9 (3.72) |
| KSSQSMLYELRNKNSVA | WASTRES | LQYHRLPLS | 1.46 1.41 1.63 | 1.50 | 0 of 9 |
| KSEQSVLYESRNLNSVA | WASTVES | QQYHRLPLS | 2.80 3.23 3.61 | 3.22 | 3 of 9 (3.78) |
| WSSQSVLYESRNKGSVA | WASTRYS | QQYHRLPLS | nd nd nd | nd | 1 of 9 (4.82) |
| KSSQSVTYTSRNKNSVA | WASTRES | QRYHRLPLS | nd 5.25 nd | 5.25 | 5 of 9 (3.89) |
| KSRQSVLYESPNKNSVH | WASTRES | QQYHRLPLS | nd nd nd | nd | 3 of 9 (3.52) |
| KSDQVVLYESRNKNCVA | WASTRES | QQYHRLPLS | 2.74 3.35 3.16 | 3.08 | 3 of 9 (3.55) |
| KSSQSVLYESRVKNSVA | WASTCES | QQYHRLPLS | nd nd nd | nd | 0 of 9 |
| KSSQSVLYESRNKNWVA | WASDRES | QQYHRLDLS | 2.93 2.74 2.92 | 2.86 | 3 of 9 (4.21) |
| YSSQSVLYESRNKNSVA | WASTRES | QQYHRGPLM | 1.95 2.07 2.31 | 2.11 | 0 of 9 |
| KSSQSVLYEIRNKNSVA | WASTRES | QQYHRAPLC | 4.40 nd 5.77 | 5.09 | 3 of 9 (5.30) |
| KSSQSVLYVSRYKNSVA | WASTRES | YQYHRLPLS | 3.62 3.40 nd | 3.51 | 4 of 9 (3.77) |
| KSSQSILYESRNKFSVA | WASTRES | QQYHMLPLS | 1.99 2.03 1.97 | 2.00 | 0 of 9 |
| KSSQSVLYESRNKNSVA | WKSARES | QQYHFLPLS | 3.69 4.54 nd | 4.12 | 3 of 9 (4.88) |
| DSSQSVLKESRNKNSVA | WASTRES | QQYHRLPKS | 2.49 1.96 2.36 | 2.27 | 1 of 9 (4.64) |
| KSSQDVLYESRNKNSVA | WAATRES | QQYHRLHLS | nd nd nd | nd | 0 of 9 |
| KSSQSVLYESRNKNSCA | WAFGRES | QQYHRLPLS | nd nd 2.76 | 2.76 | 0 of 9 |
| KSSQSVLYESRSKNSVA | WASTRES | VQYHRSPLS | nd nd 3.27 | 3.27 | 0 of 9 |
| KSSQSVLYESRPKNSVA | WAQTRMS | QQYHRLPLS | 1.41 1.37 1.46 | 1.41 | 2 of 9 (4.75) |
| KLSQSVLYESRNKNSVA | WASTRES | QQYHWLALS | nd nd nd | nd | 2 of 9 (3.63) |
| KSSQSALYESRNKNSVA | WAPTRES | QQYHCLPLS | nd 3.90 4.60 | 4.25 | 4 of 9 (4.39) |

Picked from the list: the 7 lowest averages where every replicate gave a value.

| CDR-L1 | CDR-L2 | CDR-L3 | log10 Kd, replicates | mean log10 Kd (nM) | signal with controls |
|---|---|---|---|---|---|
| KSSQSVLYESRNKNSHA | NASTRES | QDYHRLPLS | 0.24 0.55 0.43 | 0.41 | 0 of 9 |
| KTSQSVLYESRNKNCVA | NASTRES | QQYHRLPLS | 0.35 0.80 0.55 | 0.57 | 4 of 9 (5.48) |
| KLSQSVLYESRNKNSVA | WASTLES | QQYHELPLS | 0.60 0.63 0.52 | 0.58 | 0 of 9 |
| KSSQSVLYESRNKNSVA | WASTKES | QQYHRLPLS | 1.24 1.40 1.26 | 1.30 | 5 of 9 (4.59) |
| KSSQSVLYESRPKNSVA | WAQTRMS | QQYHRLPLS | 1.41 1.37 1.46 | 1.41 | 2 of 9 (4.75) |
| KSSQSMLYELRNKNSVA | WASTRES | LQYHRLPLS | 1.46 1.41 1.63 | 1.50 | 0 of 9 |
| TSSQSVLYEYRNKNSVA | WASTRES | QQYERLPLS | 1.84 1.92 1.18 | 1.64 | 0 of 9 |